Laboratory results: the supplement of paper PMC6733853

Protein sequences, listed by entry. Tags and fused reporters are not part of them.
UniProt P33535, whole entry: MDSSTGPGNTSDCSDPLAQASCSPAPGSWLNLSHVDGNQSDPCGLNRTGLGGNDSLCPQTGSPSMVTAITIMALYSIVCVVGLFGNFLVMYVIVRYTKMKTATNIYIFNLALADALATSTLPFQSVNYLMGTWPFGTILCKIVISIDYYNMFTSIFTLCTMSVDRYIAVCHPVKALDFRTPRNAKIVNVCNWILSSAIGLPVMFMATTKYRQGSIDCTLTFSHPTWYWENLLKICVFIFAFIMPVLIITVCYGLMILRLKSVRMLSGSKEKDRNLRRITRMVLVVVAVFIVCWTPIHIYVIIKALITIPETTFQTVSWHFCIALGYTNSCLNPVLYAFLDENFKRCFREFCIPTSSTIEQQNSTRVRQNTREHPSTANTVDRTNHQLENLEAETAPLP

Target: mu opioid receptor (rat) (UniProt P33535)
Conditions: receptor: rat MOR

CN(C)C(=O)C(CCN1CCC(O)(c2ccc(Cl)cc2)CC1)(c1ccccc1)c1ccccc1 [Loperamide]
Conditions | pEC50
Gαi1 | 7.26
Gαi2 | 8.18
Gαo | 7.89
Kir | 6.18
cAMP | 8.15
βarrestine 1 | 6.13
βarrestine 2 | 5.76
βarrestine 2-GRK2 | 6.44
βarrestine 2-GRK5 | 6.48
βarrestine 2-GRK6 | 6.17
